Legend:
[1] = target: T1, Transient receptor potential cation channel subfamily V member 1 (Rattus norvegicus, UniProt O35433); assay: Vanilloid receptor subtype 1 antagonist activity based on its ability to block low pH-induced activation of the rat VR1 channel in a HEK293 cell line; assay type: functional
[2] = target: T1, Transient receptor potential cation channel subfamily V member 1; assay: Vanilloid receptor subtype 1 antagonist activity based on its ability to block capsaicin-induced (CAP) activation of the rat VR1 channel in a HEK293 cell line; assay type: functional

Sequences of proteins named here, by UniProt entry; tags and fusion partners are left off.
UniProt O35433, whole entry: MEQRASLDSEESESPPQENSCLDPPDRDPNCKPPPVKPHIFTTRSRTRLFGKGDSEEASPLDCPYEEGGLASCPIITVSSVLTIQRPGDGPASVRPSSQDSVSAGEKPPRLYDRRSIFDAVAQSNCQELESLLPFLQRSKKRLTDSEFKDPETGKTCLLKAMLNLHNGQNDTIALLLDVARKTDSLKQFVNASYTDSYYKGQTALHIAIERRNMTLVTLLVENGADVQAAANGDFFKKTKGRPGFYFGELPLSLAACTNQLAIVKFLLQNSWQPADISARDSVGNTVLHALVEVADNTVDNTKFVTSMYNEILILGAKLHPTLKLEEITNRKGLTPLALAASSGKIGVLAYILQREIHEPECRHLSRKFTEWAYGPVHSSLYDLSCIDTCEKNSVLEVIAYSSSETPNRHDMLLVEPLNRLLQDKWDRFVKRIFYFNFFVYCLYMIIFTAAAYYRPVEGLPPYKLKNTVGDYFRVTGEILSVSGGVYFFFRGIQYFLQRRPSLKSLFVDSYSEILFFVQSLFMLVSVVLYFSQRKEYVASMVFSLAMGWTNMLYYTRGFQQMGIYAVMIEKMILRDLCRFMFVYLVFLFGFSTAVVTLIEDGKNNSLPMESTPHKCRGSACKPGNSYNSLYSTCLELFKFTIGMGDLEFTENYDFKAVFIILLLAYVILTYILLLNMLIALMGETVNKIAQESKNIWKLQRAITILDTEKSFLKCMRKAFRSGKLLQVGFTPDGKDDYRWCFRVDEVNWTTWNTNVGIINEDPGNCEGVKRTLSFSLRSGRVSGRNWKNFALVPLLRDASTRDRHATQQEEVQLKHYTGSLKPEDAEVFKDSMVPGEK

IC50 [1]	IC50 [2]	SMILES
39.2 nM		CC(C)c1ccc(NC(=O)N2CCN(c3ncccc3C(F)(F)F)CC2)cc1
4.8 nM	34.9 nM	CC(C)(C)c1ccc(NC(=O)N2CCN(c3ncccc3Cl)CC2)cc1

— ChEMBL document CHEMBL1136303, “4-(2-pyridyl)piperazine-1-carboxamides: potent vanilloid receptor 1 antagonists” (Bioorg Med Chem Lett, 2003)
